# Binding of CDR-mutated scFvs to a peptide of the spike HR2 region

Data: MIT Lincoln Laboratory AlphaSeq set, Li et al. 2023, doi:10.1038/s41467-023-39022-2, as distributed in FLAb.

Antigen: PDVDLGDISGINAS, a 14-residue peptide of the SARS-CoV-2 spike HR2 region.

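Phage display of a naive human antibody library on the peptide gave the parent. Designed CDR sequences, proposed from the first random library and measured here. Group labels follow the data file (Ctrl: baseline library sampled from a position-specific scoring matrix, with some repeated check sequences; Rand: our label for a block that the file lists under HC and that is probably the random mutants of the ten best first-round binders; GP: Gaussian process model; HC: hill climbing; Gen: genetic algorithm; Gibbs: Gibbs sampling; a sequence that several methods proposed may carry one label only). AlphaSeq pools MATa yeast showing the antibodies with MATalpha yeast showing the peptide. Mating (16 h, 30 °C) was followed by selection of diploids and sequencing of their barcodes. Scores were corrected for input abundance and mapped to Kd with protein pairs of known affinity run in the same pool. Mating was done six times.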

Ab-14 is the parent antibody, in scFv form: VH, then the linker GGGGSGGGGSGGGGS, then VL. The heavy chain is unchanged in all variants.
VH: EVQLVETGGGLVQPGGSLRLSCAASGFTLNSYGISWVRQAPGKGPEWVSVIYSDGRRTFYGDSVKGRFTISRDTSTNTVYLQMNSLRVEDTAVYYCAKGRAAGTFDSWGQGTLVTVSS
VL: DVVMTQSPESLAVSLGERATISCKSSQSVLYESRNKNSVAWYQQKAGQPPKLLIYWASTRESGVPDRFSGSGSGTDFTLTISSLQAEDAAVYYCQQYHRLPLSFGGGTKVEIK

Positions count from residue 1 of the parent VL; S25Y puts Y in place of S.
This list holds designs with at most six substitutions.
Scale: log10 of Kd in nM, estimated from mating counts; low values are strong binders.
"n.d." marks a missing value. The strain was present, yet no cells mated with the target were sequenced in that replicate, which points to weak or no binding.
The range of this assay differs from that of the first round, and the authors advise against merging the two.
Empty control strains, which show no peptide, gave a signal in 4% of pairings with all light chain designs; the median was 2.64 and 95% of these signals were weaker than 1.59. No background was subtracted.
Of ten entries with the parent sequence, four were seen in most replicates (averages 0.34 to 2.37), three in one and three in none, so single entries are noisy.
In the paper, a design with two or fewer of six values counts as a poor binder.

| changes | group | log10 Kd, replicates |
|---|---|---|
| S25Y+S26Y+Q27P+V29Y+W56N+R99L | GP_HC | 0.48 0.46 0.45 0.08 0.29 0.31 |
| V29W+W56G+T59E | GP_HC | -0.44 -0.52 -0.71 -0.66 -0.62 -0.33 |
| S28N+L30D+E32S+W56S | Ctrl | 0.30 0.21 0.18 0.16 0.12 0.51 |
| K24Y+S25L+W56N+T59Q | GP_Gen | 0.00 -0.06 -0.06 -0.32 -0.16 0.08 |
| S25L+S38A+W56N+T59Q | GP_Gen | 0.32 0.33 0.22 0.08 0.11 0.29 |
| S33D+R34E | Ctrl | 1.85 1.37 1.65 1.43 1.56 1.56 |
| S25V+V29K+W56D+T59Q | GP_Gen | 0.83 0.88 0.77 0.28 0.87 0.67 |
| S25L+V29E+W56E+Q96D | GP_Gen | 0.31 0.28 0.14 0.30 0.19 0.50 |
| K24A+S25L+W56H | GP_Gen | -0.05 0.11 -0.09 -0.04 -0.10 -0.07 |
| S25L+N37Q+W56E | GP_Gen | -0.32 -0.27 -0.05 -0.74 -0.57 -0.17 |
| S62L+R99H | Ctrl | 1.47 2.36 1.90 1.34 1.53 1.76 |
| S25L+Q27M+S38N+W56G | GP_Gen | -0.64 -0.59 -0.65 -0.85 -0.82 -0.60 |
| S25V+W56Q+S103M | GP_Gen | -0.23 0.00 -0.01 -0.01 -0.03 0.10 |
| K24Q+S25I+Y31D | Ctrl | 1.20 1.02 1.07 0.85 0.81 0.99 |
| S25L+W56N+E61L+S62V | GP_Gen | 0.15 -0.02 -0.07 -0.29 0.03 0.07 |
| S25L+S28A+N35L+H98S | Ctrl | 0.51 0.61 0.15 0.73 0.14 0.72 |
| S25L+S26R+W56N+T59Q | GP_Gen | -0.30 -0.25 -0.41 -0.53 -0.42 -0.31 |
| E32T+W56H | Ctrl | 1.91 0.91 0.79 1.59 1.24 1.33 |
| S25F+L30M+W56N | GP_Gen | -0.39 -0.33 -0.65 -0.41 0.07 -0.30 |
| S25F+Q27P+N35V+W56N | GP_HC | 0.22 0.21 -0.05 0.23 -0.05 0.12 |
| S25L+V29D+W56S | GP_Gen | -0.07 -0.16 -0.26 -0.34 -0.36 0.05 |
| Y31N+K36F+W56D | GP_HC | 0.45 0.53 0.26 0.31 0.33 0.68 |
| Y31M+R34L+W56A+S58M+E61V | Ctrl | 0.71 0.79 0.87 0.44 0.91 0.64 |
| K36G+E61N | Ctrl | 1.58 2.59 n.d. 2.39 1.80 2.97 |
| S25L+L30E+W56N+E61L | GP_Gen | 0.46 0.37 0.25 0.22 0.49 0.46 |
| S25L+S26Y+V29Y+W56N+T59Q | GP_Gen | 0.95 1.26 0.83 0.34 1.97 0.33 |
| S33E+N35P+V39M+W56A | Ctrl | 0.11 0.17 0.44 -0.05 0.05 -0.10 |
| S25L+W56E+E61F | GP_Gen | 0.55 0.32 0.23 0.15 0.26 0.24 |
| S25L+S26Q+E32Q+W56G | GP_Gen | -0.08 0.00 -0.18 -0.26 -0.22 -0.15 |
| Y31D+W56E+A57G | Ctrl | 0.09 0.06 0.08 0.07 -0.03 -0.24 |
| S25L+S26D+V29T+E61L | GP_HC | 0.38 0.45 0.14 0.32 0.21 0.13 |
| K24N+W56Y | Ctrl | 2.50 n.d. 1.91 1.92 3.40 1.74 |
| S25L+N35M+W56E+T59Q | GP_Gen | 0.85 0.96 0.56 0.26 0.67 0.40 |
| S26L+Y31L+K36F+W56H+S62D | GP_HC | 0.48 0.27 0.08 0.16 0.30 0.44 |
| S25F+L30P+W56E | GP_Gen | -0.02 -0.31 -0.36 -0.39 -0.33 -0.08 |
| Q27W+Y31F+E32N+W56D+Y97L | Rand | n.d. n.d. n.d. n.d. n.d. n.d. |
| S25L+W56A+T59Q | GP_Gen | 0.03 0.03 -0.07 -0.10 -0.25 -0.01 |
| A57S+P101S | Ctrl | n.d. n.d. n.d. n.d. n.d. n.d. |
| S25L+V29M+L30E+W56E | GP_Gen | 1.32 2.28 n.d. 1.22 0.83 2.04 |
| S25L+N35L+K36P+A57G | Ctrl | 2.32 n.d. 2.36 2.34 1.35 2.08 |
| S25F+V29F+K36F+W56G | GP_HC | -0.17 -0.58 -0.38 -0.41 -0.46 -0.32 |
| R99S | Ctrl | 1.36 1.08 2.74 1.49 2.02 2.09 |
| W56H+R60T | Ctrl | 1.07 1.60 1.69 1.57 1.78 1.17 |
| K36G | Ctrl | 2.36 2.23 1.74 2.17 1.98 2.23 |
| S25L+L30M+S38N+W56E | GP_Gen | 1.17 0.15 0.06 0.12 0.28 0.43 |
| S25L+S38N+W56E+S62W | GP_Gen | 0.03 -0.11 -0.23 -0.43 -0.28 -0.21 |
| S25L+S26V+V29T+W56D | GP_HC | -0.13 -0.58 -0.36 -0.45 -0.40 -0.13 |
| S25F+S26Q+S28A+V29M+W56N+T59C | GP_Gibbs | -0.09 0.00 0.13 -0.19 0.11 0.20 |
| K24C+Q27P+V29G+W56N | Rand | n.d. 1.25 2.21 0.77 1.39 0.74 |
| V29F+Y31S+N35W+W56D+T59Q | GP_HC | -0.34 0.09 0.08 -0.09 -0.04 -0.13 |